In US11957711B2 (priority 2021, dated 2024):

Assay: NOAEL (no-observed-adverse-effect-level) for inhaled gas

Dichlorine monoxide
Values in mg/liters for gaseous mixtures for 8 hours (8 hours, (0.61×86.9054)/24200): 0.0028 ppm
maximum value (NOAEL-based) in 24 hours (24 hours, (0.61×8)/24): 0.20 ppm
NOAEL (Summary Toxicology Table): 0.0022 Mg/Liters in 8 hours
maximum value that must be maintained to dose the product (NOAEL-based) (inhaling gas mixture for 8 hours without adverse effects, 1.23×0.5 from chlorine gas NOAEL): 0.61 ppm
